Laboratory results published in patent publication US20120309087A1, “CANCER THERAPY” (University Court of The University of Dundee, priority 2006, published 2012).

Tested on: ARE-driven luciferase activity in AREc32 cells
Experiment: Antagonism of induced ARE-driven luciferase activity in AREc32 cells
Format: cell-based, human

For CC1=C(/C=C/C(C)=C/C=C/C(C)=C/C(=O)O)C(C)(C)CCC1 [ATRA, all trans-retinoic acid], the “chemotherapeutic agent-mediated induction of luciferase activity” value was “completely ablates” and the “chemotherapeutic agent-mediated luciferase activity after BSO pretreatment” value was “significantly antagonising”.
